Measurements as given in PubChem BioAssay AID588489 (Sanford-Burnham Center for Chemical Genomics, 2011).
This is a selection; strong and weak results do not stand in their true shares. Activity calls are given as the source filed them. Rule as the data show it: active = inhibition above about 35% (passing the limit was not always enough); inactive = the rest.

Amino acid sequences for entries named in this document (tags omitted).
UniProt P11940, whole entry: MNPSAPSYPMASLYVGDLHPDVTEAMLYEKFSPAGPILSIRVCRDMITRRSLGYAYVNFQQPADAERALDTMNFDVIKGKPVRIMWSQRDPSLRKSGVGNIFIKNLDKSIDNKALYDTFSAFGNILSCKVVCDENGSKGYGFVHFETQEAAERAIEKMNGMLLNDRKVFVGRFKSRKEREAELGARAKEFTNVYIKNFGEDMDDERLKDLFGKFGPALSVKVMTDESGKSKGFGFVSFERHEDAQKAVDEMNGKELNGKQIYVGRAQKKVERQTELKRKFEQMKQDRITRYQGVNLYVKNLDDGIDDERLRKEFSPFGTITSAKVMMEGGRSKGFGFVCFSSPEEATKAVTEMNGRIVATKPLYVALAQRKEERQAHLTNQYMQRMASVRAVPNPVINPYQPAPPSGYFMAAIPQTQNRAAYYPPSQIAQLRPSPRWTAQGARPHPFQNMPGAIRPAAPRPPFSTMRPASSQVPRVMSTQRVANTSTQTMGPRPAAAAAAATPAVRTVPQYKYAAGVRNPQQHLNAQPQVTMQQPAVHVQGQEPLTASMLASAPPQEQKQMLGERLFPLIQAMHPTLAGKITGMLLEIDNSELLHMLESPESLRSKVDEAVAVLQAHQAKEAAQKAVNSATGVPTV

target: Polyadenylate-binding protein 1 (Homo sapiens) (UniProt P11940); experiment: inhibitors of PABP1 MLLE–PAM2 peptide binding, primary screen, biochemical, fluorescence polarization, FITC-PAM2, GST-MLLE (AID 588489); details: at 20 µM, hits give high values;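 also: plate controls were DMSO wells with GST-MLLE for no effect and wells lacking GST-MLLE protein for full effect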

Row | SMILES | inhibition
1 | O=C(NCC1(N2CCCCC2)CCCCC1)c1cccc([N+](=O)[O-])c1 | inactive: -14.3%
2 | CSc1ccc(C(=O)NCC2(N3CCOCC3)CCCCC2)cc1 | inactive: 12.6%
3 | CCN1CCC(Nc2ccc(Cl)cc2)CC1 | inactive: -16.4%
4 | O=c1[nH]c2ccccc2n1C1CCN(C(c2ccccc2OC(F)(F)F)c2nnnn2C2CCCC2)CC1 (configuration not stated) | inactive: 5.4%
5 | N#CC1(Nc2ccccc2)CCN(CCc2ccccc2)CC1 | inactive: 0.48%
6 | CC(C)(C)n1nnnc1C(c1ccccc1OC(F)(F)F)N1CCC(n2c(=O)[nH]c3ccccc32)CC1 (configuration not stated) | inactive: 9.23%
7 | O=C(NCC1(N2CCCCC2)CCCCC1)c1ccc(OC(F)F)cc1 | inactive: -14.1%
8 | CC(C)c1ccc(C(=O)NCC2(N3CCOCC3)CCCCC2)cc1 | inactive: 0.19%
9 | COc1ccc(NC2CCN(C(=O)OC(C)(C)C)CC2)cc1 | inactive: 6.75%
10 | CN1CCN(CCOC(=O)C(O)(c2ccccc2)c2ccccc2)CC1 | inactive: 7.48%
11 | CCCCn1nnnc1C(c1cccc2ccccc12)N1CCC(n2c(=O)[nH]c3ccccc32)CC1 (configuration not stated) | inactive: -4.27%
12 | O=C(NCC1(N2CCOCC2)CCCCC1)c1cc(=O)[nH]c2ccccc12 | inactive: -2.43%
13 | COc1cc(C(=O)NCC2(N3CCCCC3)CCCCC2)ccc1OC(F)F | inactive: -85.5%
14 | O=C(NCC1(N2CCCCC2)CCCCC1)c1cccc(C(F)(F)F)c1 | inactive: -3.48%
15 | CCCCn1nnnc1C(c1ccnc2ccccc12)N1CCC(n2c(=O)[nH]c3ccccc32)CC1 (configuration not stated) | inactive: 1.5%
16 | COc1cc(OC)c(C(=O)NCC2(N(C)C)CCCCC2)cc1OC | inactive: -6.99%
17 | CCC(c1nnnn1C(C)(C)C)N1CCC(n2c(=O)[nH]c3ccccc32)CC1 (configuration not stated) | inactive: 11.2%
18 | O=C(NCC1(N2CCOCC2)CCCCC1)c1cc(F)c(F)cc1Cl | inactive: 5.35%
19 | COc1ccc(CN(CCCl)CCCl)cc1Cl | inactive: 4.04%
20 | CN(C)c1cccc(C(=O)NCC2(N3CCCCC3)CCCCC2)c1 | inactive: -1.08%
21 | CCCCn1nnnc1C(c1ccccc1OC(F)(F)F)N1CCC(n2c(=O)[nH]c3ccccc32)CC1 (configuration not stated) | inactive: 15.5%
22 | CC(C)c1ccc(NC2CCN(C(=O)OC(C)(C)C)CC2)cc1 | inactive: 0%

Row | SMILES | inhibition
23 | Cc1ccc(C(=O)NCC2(N(C)C)CCCCC2)o1 | inactive: 5.79%
24 | CCCOc1ccc(C(=O)NCC2(N(C)C)CCCCC2)cc1OC | inactive: 13.8%
25 | COc1ccc(C(c2nnnn2C2CCCC2)N2CCC(n3c(=O)[nH]c4ccccc43)CC2)cc1 (configuration not stated) | inactive: 5.88%
26 | CN1CCC(Nc2cccc(F)c2)CC1 | inactive: 11.2%
27 | O=C(NCC1(N2CCCCC2)CCCCC1)c1cncc(Br)c1 | inactive: 6.69%
28 | CSc1ccccc1C(=O)NCC1(N2CCCCC2)CCCCC1 | inactive: -15.1%
29 | Cc1cccc(NC2(C#N)CCN(Cc3ccccc3)CC2)c1 | inactive: 17.1%
30 | O=C(NCC1(N2CCCCC2)CCCCC1)c1ccc(=O)[nH]c1 | inactive: -6.25%
31 | O=C(NCC1(N2CCCCC2)CCCCC1)c1cccs1 | inactive: -34.7%
32 | CCCCn1nnnc1C(CC)N1CCC(n2c(=O)[nH]c3ccccc32)CC1 (configuration not stated) | inactive: -5.13%
33 | CCCCn1nnnc1C(c1cccs1)N1CCC(n2c(=O)[nH]c3ccccc32)CC1 (configuration not stated) | inactive: -3.59%
34 | COc1ccc(C(=O)NCC2(N3CCCCC3)CCCCC2)cc1 | inactive: -6.19%
35 | CC(C)(C)OC(=O)N1CCC(N(C(=O)c2ccccc2)c2ccc(F)cc2)CC1 | inactive: -4.81%
36 | COc1ccc(C(=O)NCC2(N3CCCCC3)CCCCC2)c(OC)c1OC | inactive: -4.68%
37 | CCC(c1nnnn1C1CCCC1)N1CCC(n2c(=O)[nH]c3ccccc32)CC1 (configuration not stated) | inactive: -10.1%
38 | CCOC(=O)N1CCC(Nc2ccc(OC)cc2)CC1 | inactive: 4.46%
39 | CCCCn1nnnc1C(c1ccc(OC)cc1)N1CCC(n2c(=O)[nH]c3ccccc32)CC1 (configuration not stated) | inactive: -11.8%
40 | O=C(NCC1(N2CCCCC2)CCCCC1)c1ccc(Cl)s1 | inactive: 1.55%
41 | N#CC1(Nc2ccccc2)CCN(Cc2ccccc2)CC1 | inactive: 17.3%
42 | O=c1[nH]c2ccccc2n1C1CCN(C(c2cc3ccccc3o2)c2nnnn2C2CCCCC2)CC1 (configuration not stated) | inactive: -5.95%
43 | O=C(OC1CN2CCC1CC2)C1c2ccccc2Oc2ccccc21 (configuration not stated) | inactive: 30.2%
44 | COc1ccc(Cl)cc1C(=O)NCC1(N2CCOCC2)CCCCC1 | inactive: 8.03%

Row | SMILES | inhibition
45 | O=C(NCC1(N2CCOCC2)CCCCC1)c1cc2ccccc2o1 | inactive: -16%
46 | O=C(NCC1(N2CCCCC2)CCCCC1)c1ccc(Cl)nc1 | inactive: -31.3%
47 | O=c1[nH]c2ccccc2n1C1CCN(C(c2ccccc2OC(F)(F)F)c2nnnn2C2CCCCC2)CC1 (configuration not stated) | inactive: -6.9%
48 | Cc1cc(C)cc(N(C(=O)c2ccccc2)C2CCN(C(=O)OC(C)(C)C)CC2)c1 | inactive: 11.4%
49 | CCCCOc1ccc(C(=O)NCC2(N3CCOCC3)CCCCC2)cc1 | inactive: -5.19%
50 | CCCCn1nnnc1C(c1cc2ccccc2o1)N1CCC(n2c(=O)[nH]c3ccccc32)CC1 (configuration not stated) | inactive: -4.12%
51 | O=P1(N(CCCl)CCCl)SCCCS1 | inactive: 6.9%
52 | O=C(NCC1(N2CCCCC2)CCCCC1)c1ccc(F)cc1 | inactive: 8.74%
53 | CCOC(=O)N1CCC(Nc2ccc(F)cc2)CC1 | inactive: 9.06%
54 | COc1ccc(NC2CCN(CCc3ccccc3)CC2)c(OC)c1 | inactive: 17%
55 | CCOc1ccc(C)cc1CN(CCCl)CCCl | inactive: 2.67%
56 | CC(C)(C)n1nnnc1C(c1ccccc1)N1CCC(n2c(=O)[nH]c3ccccc32)CC1 (configuration not stated) | inactive: 11.2%
57 | O=C1CCN(Cc2ccccc2)CC1 | inactive: -3.16%
58 | O=c1[nH]c2ccccc2n1C1CCN(C(c2cccc3ccccc23)c2nnnn2C2CCCC2)CC1 (configuration not stated) | inactive: 1.34%
59 | CCOC(=O)N1CCC(Nc2cccc(C)c2)CC1 | inactive: -7.18%
60 | COc1cc(C(=O)NCC2(N(C)C)CCCCC2)ccc1OC(F)F | inactive: -5.68%
61 | O=c1[nH]c2ccccc2n1C1CCN(C(c2ccccc2)c2nnnn2C2CCCCC2)CC1 (configuration not stated) | inactive: 3.18%
62 | Cc1ccc(NC2(C#N)CCN(Cc3ccccc3)CC2)cc1 | inactive: -6.48%
63 | Cc1ccc(C(=O)NCC2(N3CCCCC3)CCCCC2)o1 | inactive: -3.14%
64 | Fc1ccccc1NC1CCN(Cc2ccccc2)CC1 | inactive: -8.18%
65 | COc1cc(OC)cc(C(=O)NCC2(N3CCCCC3)CCCCC2)c1 | inactive: -1.28%
66 | O=c1[nH]c2ccccc2n1C1CCN(C(c2ccnc3ccccc23)c2nnnn2C2CCCCC2)CC1 (configuration not stated) | inactive: 6.15%

Row | SMILES | inhibition
67 | COc1cccc(C(c2nnnn2C2CCCCC2)N2CCC(n3c(=O)[nH]c4ccccc43)CC2)c1OC (configuration not stated) | inactive: -11.4%
68 | CC(=O)N(c1ccccc1)C1CCNCC1 | inactive: -6.34%
69 | CCC(c1nnnn1C1CCCCC1)N1CCC(n2c(=O)[nH]c3ccccc32)CC1 (configuration not stated) | inactive: 5%
70 | O=C(NCC1(N2CCCCC2)CCCCC1)c1ccco1 | inactive: 1.56%
71 | CN(C)c1ccc(C(=O)NCC2(N3CCCCC3)CCCCC2)cc1 | inactive: -2.06%
72 | Cn1c(=O)[nH]cc(N(CCCl)CCCl)c1=O | inactive: 0.83%
73 | Cc1ccccc1NC1(C#N)CCN(Cc2ccccc2)CC1 | inactive: 1.13%
74 | CCN1CCC(Nc2cccc(F)c2)CC1 | inactive: 6.85%
75 | COc1ccc(C(c2nnnn2C2CCCCC2)N2CCC(n3c(=O)[nH]c4ccccc43)CC2)cc1 (configuration not stated) | inactive: -2.97%
76 | CC(C)(C)n1nnnc1C(c1ccnc2ccccc12)N1CCC(n2c(=O)[nH]c3ccccc32)CC1 (configuration not stated) | inactive: 6.02%
77 | O=c1[nH]c2ccccc2n1C1CCN(C(c2cc3ccccc3o2)c2nnnn2C2CCCC2)CC1 (configuration not stated) | inactive: 12.9%
78 | CCCOc1ccc(C(=O)NCC2(N(C)C)CCCCC2)cc1 | inactive: -3.73%
79 | CC(C)(C)OC(=O)N1CCC(Nc2ccccc2)CC1 | inactive: 3.48%
80 | O=C(O)C1(Nc2ccccc2)CCN(Cc2ccccc2)CC1 | inactive: -7.6%
81 | CCOc1ncccc1C(=O)NCC1(N2CCOCC2)CCCCC1 | inactive: -1.51%
82 | CN1CCC(Nc2ccc(F)c(Cl)c2)CC1 | inactive: 1.35%
83 | CN1CCC(Nc2ccc(Cl)cc2)CC1 | inactive: 0.27%
84 | CCC(CO)(C(=O)OC1CN2CCC1CC2)c1ccccc1 (configuration not stated) | inactive: -2.74%
85 | COc1cccc(C(=O)N(c2cc(C)cc(C)c2)C2CCN(C(=O)OC(C)(C)C)CC2)c1 | inactive: -0.48%
86 | COc1cc(OC)cc(C(=O)NCC2(N3CCOCC3)CCCCC2)c1 | inactive: -10.9%
87 | COc1cccc(C(c2nnnn2C2CCCC2)N2CCC(n3c(=O)[nH]c4ccccc43)CC2)c1OC (configuration not stated) | inactive: 16.8%
88 | COc1ccc(C(=O)NCC2(N3CCOCC3)CCCCC2)cc1OC | inactive: 3.05%

Row | SMILES | inhibition
89 | O=c1[nH]c2ccccc2n1C1CCN(C(c2ccnc3ccccc23)c2nnnn2C2CCCC2)CC1 (configuration not stated) | inactive: 4.35%
90 | O=c1[nH]c2ccccc2n1C1CCN(C(c2cccs2)c2nnnn2C2CCCCC2)CC1 (configuration not stated) | inactive: 5.54%
91 | O=C(NCC1(N2CCOCC2)CCCCC1)c1cc(Br)ccc1Cl | inactive: 0.09%
92 | CCCCn1nnnc1C(c1ccccc1)N1CCC(n2c(=O)[nH]c3ccccc32)CC1 (configuration not stated) | inactive: 0.71%
93 | COc1cc(C(=O)NCC2(N3CCOCC3)CCCCC2)cc(OC)c1C | inactive: 12%
94 | CCCCn1nnnc1C(c1cccc(OC)c1OC)N1CCC(n2c(=O)[nH]c3ccccc32)CC1 (configuration not stated) | inactive: -15.1%
95 | O=C(OC1CN2CCC1CC2)C1c2ccccc2C=Cc2ccccc21 (configuration not stated) | inactive: -5.97%
96 | O=c1[nH]c2ccccc2n1C1CCN(C(c2cccs2)c2nnnn2C2CCCC2)CC1 (configuration not stated) | inactive: 6.45%
97 | N/C(=N\O)c1c(N)no[n+]1[O-] | inactive: 11.2%
98 | CCOC(=O)N1CCC(Nc2ccc(C)cc2)CC1 | inactive: -1.86%
99 | COc1cccc(C(c2nnnn2C(C)(C)C)N2CCC(n3c(=O)[nH]c4ccccc43)CC2)c1OC (configuration not stated) | inactive: -11.6%
100 | CC(C)(C)OC(=O)N1CCC(N(C(=O)c2ccccc2)c2ccc(Cl)cc2)CC1 | inactive: 1.97%
101 | N#Cc1ccc(C(=O)NCC2(N3CCCCC3)CCCCC2)cc1 | inactive: 14.4%
102 | CC(C)(C)n1nnnc1C(c1cccc2ccccc12)N1CCC(n2c(=O)[nH]c3ccccc32)CC1 (configuration not stated) | inactive: 8.07%
103 | c1ccc(CN2CCC(Nc3ccccc3)CC2)cc1 | inactive: 1.19%
104 | Cc1cc(N(CCCl)CCCl)ccc1C=O | inactive: 2.37%
105 | O=c1[nH]c2ccccc2n1C1CCN(C(c2ccccc2)c2nnnn2C2CCCC2)CC1 (configuration not stated) | inactive: 2.48%
106 | CCCN1CCC(Nc2cc(OC)cc(OC)c2)CC1 | active: 46.2%
107 | CN(C)C1(CNC(=O)c2cccc(C#N)c2)CCCCC1 | inactive: 4.56%
